Source: patent US6974816B2, “Combination for the treatment of endothelial damage” (Licentia Ltd., priority 2001, dated 2005)

Settings: rabbit, in vivo

Cc1ccc(NC(=O)c2ccc(CN3CCN(C)CC3)cc2)cc1Nc1nccc(-c2cccnc2)n1 [STI571, N-{5-[4-(4-methyl-piperazino-methyl)-benzoylamido]-2-methylphenyl}-4-(3-pyridyl)-2-pyrimidine-amine]
weight: 2618 ± 124 g
